Data on one compound can be found in publication PMC4535769, “The Carboxy Terminus of the Ligand Peptide Determines the Stability of the MHC Class I Molecule H-2K^b: A Combined Molecular Dynamics and Experimental Study” (PLoS ONE, 2015).

Chains of the proteins cited; added tags and fusions are not shown. Residues count along the entry.
UniProt P01901, 22-305 limits assumed: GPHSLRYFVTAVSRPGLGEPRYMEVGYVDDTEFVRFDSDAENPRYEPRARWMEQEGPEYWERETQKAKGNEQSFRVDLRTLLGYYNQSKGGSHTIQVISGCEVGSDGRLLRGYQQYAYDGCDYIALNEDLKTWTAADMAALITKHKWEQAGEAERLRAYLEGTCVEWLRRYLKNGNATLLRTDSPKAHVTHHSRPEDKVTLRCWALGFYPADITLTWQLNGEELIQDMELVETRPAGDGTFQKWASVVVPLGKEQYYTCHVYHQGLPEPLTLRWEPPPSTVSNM

Usually pIC50 stands for the IC50 on a negative log10 scale, so that one unit is a factor of ten. Low readings indicate a large IC50, high ones a small IC50.

pIC50: −log10 of the molar value.

For the assay, the target named is T1, K^b/β2m (Mus musculus, UniProt P01901).
T1 construct: The TDTF analysis was performed on the luminal domain of K^b, which was produced in E.coli; made in house
As to the kind of experiment: Competitive binding against SIINFEKTAMRAL measured by fluorescence anisotropy (IC50). The arrangement: species or system murine. The protocol:
Steady state measurements were performed with peptide-free folding reactions of K^b/β2m.
K^b was folded empty and then incubated with different concentrations of each peptide variant for five minutes. Then, the index peptide SIINFEKTAMRAL (fluorescently labeled on the lysine side chain) was added as a competitor, and the endpoint of its binding was measured by fluorescence anisotropy. From theory curves fitted to the data, we calculated the half-maximal concentration of inhibition of SIINFEKTAMRAL binding (IC50) for each modified peptide (Fig 6, S1F Fig).
Fig 6 Half-maximal concentration of peptide (IC50) required to inhibit the binding of the high affinity peptide SIINFEKTAMRAL. K^b/β2m complexes derived from the […] (B) structures were folded empty and then incubated for 5 minutes with different concentrations of full-length, truncated, or modified peptides. […] Binding curves (left) are of one representative experiment, and the IC50 values (right) are the average of three experiments.
(In general: Fluorescence polarisation rises when a labelled molecule tumbles more slowly, as on binding a larger partner.)

Compound `C[C@H](NC(=O)[C@H](C)NC(=O)[C@@H]1CCCN1C(=O)[C@H](Cc1ccc(O)cc1)NC(=O)[C@H](CC(N)=O)NC(=O)CNC(=O)[C@@H]1CCCN1C(=O)[C@H](C)NC(=O)[C@@H](N)Cc1ccccc1)C(=O)O` showed a pIC50 of 6.66.
